Values of other authors, collected in paper PMC2751796 (Pharmacology & therapeutics, 2009).

System: P-gp and BCRP
Conditions: ref Oostendorp et al., 2009; Chen et al., 2008; cited from earlier work

For `Cc1ccc(NC(=O)c2ccc(CN3CCN(C)CC3)cc2)cc1Nc1nccc(-c2cccnc2)n1` [Imatinib], the “Increase of brain-to-plasma concentration ratio in triple KO mice” value is given as 12-13 fold.
